Only a part is listed here, and it is no random draw. Activity calls are given as the source filed them.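 How the source made its calls: active means pattern-corrected inhibition of lipid staining of at least 50% with the nuclear-stain viability signal not falling by more than 50%; inactive means the rest, inconclusive results apart.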
Test: inhibitors of triacylglycerol accumulation, primary screen, cell-based, uHTS, fluorescence, H9c2 (AID 651582);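 further: 0% = DMSO wells and 100% = triacsin C control wells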
Settings: H9c2 cells, Nile Red lipid (TAG) fluorescence; at 12.5 µM; active compounds read high; cells loaded with 200 µM oleic acid

**Q.** For `Cc1ccc(C(=O)NCC2(N(C)C)CCCCC2)o1`, which inhibition is on record?
**A.** Its inhibition is inactive: -3.78%.

**Q.** Which inhibition does the source give for `O=C(NCC1(N2CCCCC2)CCCCC1)c1cncc(Br)c1` here?
**A.** The inhibition was inactive: 22.8%.

**Q.** For `O=C(NCC1(N2CCOCC2)CCCCC1)c1cc(F)c(F)cc1Cl`, which inhibition is on record?
**A.** The inhibition was inactive: -2.13%.

**Q.** For `CN(C)c1cccc(C(=O)NCC2(N3CCCCC3)CCCCC2)c1`, which inhibition is on record?
**A.** Its inhibition is inactive: 0.506%.

**Q.** Which inhibition does the source give for `COc1ccc(CN(CCCl)CCCl)cc1Cl` here?
**A.** The inhibition was inactive: -12%.

**Q.** Which inhibition does the source give for `CC(C)c1ccc(NC2CCN(C(=O)OC(C)(C)C)CC2)cc1` here?
**A.** The inhibition was inactive: -15.9%.

**Q.** Which inhibition does the source give for `CC(C)c1ccc(C(=O)NCC2(N3CCOCC3)CCCCC2)cc1` here?
**A.** The inhibition was inactive: 4.97%.

**Q.** Which inhibition does the source give for `COc1ccc(NC2CCN(C(=O)OC(C)(C)C)CC2)cc1` here?
**A.** The inhibition was inactive: 5.71%.

**Q.** For `O=C(NCC1(N2CCOCC2)CCCCC1)c1cc(=O)[nH]c2ccccc12`, which inhibition is on record?
**A.** The inhibition was inactive: -2.78%.

**Q.** Which inhibition does the source give for `O=C(NCC1(N2CCCCC2)CCCCC1)c1cccc([N+](=O)[O-])c1` here?
**A.** The inhibition was inactive: -1.43%.

**Q.** For `CSc1ccc(C(=O)NCC2(N3CCOCC3)CCCCC2)cc1`, which inhibition is on record?
**A.** The inhibition was inactive: -0.442%.

**Q.** With `N#CC1(Nc2ccccc2)CCN(CCc2ccccc2)CC1` as the molecule, how does the inhibition read?
**A.** Its inhibition is inactive: 9.73%.

**Q.** With `CCOC(=O)N1CCC(Nc2ccc(F)cc2)CC1` as the molecule, how does the inhibition read?
**A.** Its inhibition is inactive: 2.26%.

**Q.** For `O=P1(N(CCCl)CCCl)SCCCS1`, which inhibition is on record?
**A.** Its inhibition is inactive: -17.4%.

**Q.** Which inhibition does the source give for `CCCCOc1ccc(C(=O)NCC2(N3CCOCC3)CCCCC2)cc1` here?
**A.** The inhibition was inactive: -3.99%.

**Q.** With `CCOc1ccc(C)cc1CN(CCCl)CCCl` as the molecule, how does the inhibition read?
**A.** The inhibition was inactive: -1.08%.

**Q.** With `COc1ccc(Cl)cc1C(=O)NCC1(N2CCOCC2)CCCCC1` as the molecule, how does the inhibition read?
**A.** Its inhibition is inactive: -5.69%.

**Q.** For `O=C(NCC1(N2CCCCC2)CCCCC1)c1ccc(Cl)s1`, which inhibition is on record?
**A.** Its inhibition is inactive: 5.93%.

**Q.** Which inhibition does the source give for `N#CC1(Nc2ccccc2)CCN(Cc2ccccc2)CC1` here?
**A.** The inhibition was inactive: 6.13%.

**Q.** With `O=C(NCC1(N2CCOCC2)CCCCC1)c1cc2ccccc2o1` as the molecule, how does the inhibition read?
**A.** Its inhibition is inactive: -4.78%.

**Q.** For `O=C(NCC1(N2CCCCC2)CCCCC1)c1ccc(Cl)nc1`, which inhibition is on record?
**A.** Its inhibition is inactive: -5.73%.

**Q.** For `Cc1cccc(NC2(C#N)CCN(Cc3ccccc3)CC2)c1`, which inhibition is on record?
**A.** Its inhibition is inactive: 0.183%.

**Q.** Which inhibition does the source give for `O=C(NCC1(N2CCCCC2)CCCCC1)c1cccs1` here?
**A.** The inhibition was inactive: 4.65%.

**Q.** Which inhibition does the source give for `O=C(NCC1(N2CCCCC2)CCCCC1)c1ccc(=O)[nH]c1` here?
**A.** Its inhibition is inactive: -8.22%.

**Q.** Which inhibition does the source give for `COc1ccc(C(=O)NCC2(N3CCCCC3)CCCCC2)c(OC)c1OC` here?
**A.** The inhibition was inactive: -0.395%.

**Q.** Which inhibition does the source give for `CN1CCC(Nc2ccc(Cl)cc2)CC1` here?
**A.** Its inhibition is inactive: 13.3%.

**Q.** With `CCC(CO)(C(=O)OC1CN2CCC1CC2)c1ccccc1` (stereo not given) as the molecule, how does the inhibition read?
**A.** The inhibition was inactive: 4.36%.

**Q.** Which inhibition does the source give for `COc1cc(OC)cc(C(=O)NCC2(N3CCOCC3)CCCCC2)c1` here?
**A.** The inhibition was inactive: 2.93%.

**Q.** With `CC(C)(C)OC(=O)N1CCC(Nc2ccccc2)CC1` as the molecule, how does the inhibition read?
**A.** Its inhibition is inactive: -41.1%.

**Q.** With `CN1CCC(Nc2ccc(F)c(Cl)c2)CC1` as the molecule, how does the inhibition read?
**A.** The inhibition was inactive: 7.63%.

**Q.** Which inhibition does the source give for `CN(C)c1ccc(C(=O)NCC2(N3CCCCC3)CCCCC2)cc1` here?
**A.** The inhibition was inactive: -8.94%.

**Q.** Which inhibition does the source give for `Cn1c(=O)[nH]cc(N(CCCl)CCCl)c1=O` here?
**A.** The inhibition was inactive: 4.31%.

**Q.** For `O=C(NCC1(N2CCCCC2)CCCCC1)c1ccco1`, which inhibition is on record?
**A.** The inhibition was inactive: 7.33%.

**Q.** For `Cc1ccccc1NC1(C#N)CCN(Cc2ccccc2)CC1`, which inhibition is on record?
**A.** Its inhibition is inactive: -20.7%.

**Q.** For `Cc1ccc(NC2(C#N)CCN(Cc3ccccc3)CC2)cc1`, which inhibition is on record?
**A.** The inhibition was inactive: 3.81%.

**Q.** With `Cc1ccc(C(=O)NCC2(N3CCCCC3)CCCCC2)o1` as the molecule, how does the inhibition read?
**A.** The inhibition was inactive: -7.2%.

**Q.** Which inhibition does the source give for `CC(=O)N(c1ccccc1)C1CCNCC1` here?
**A.** Its inhibition is inactive: -8%.

**Q.** Which inhibition does the source give for `Cc1cc(N(CCCl)CCCl)ccc1C=O` here?
**A.** The inhibition was inactive: 9.46%.

**Q.** With `CCCN1CCC(Nc2cc(OC)cc(OC)c2)CC1` as the molecule, how does the inhibition read?
**A.** Its inhibition is inactive: 9.3%.

**Q.** Which inhibition does the source give for `c1ccc(CN2CCC(Nc3ccccc3)CC2)cc1` here?
**A.** The inhibition was inactive: -17.3%.

**Q.** Which inhibition does the source give for `N#Cc1ccc(C(=O)NCC2(N3CCCCC3)CCCCC2)cc1` here?
**A.** Its inhibition is inactive: -2.61%.

**Q.** With `N/C(=N\O)c1c(N)no[n+]1[O-]` as the molecule, how does the inhibition read?
**A.** Its inhibition is inactive: 8%.

**Q.** With `COc1ccc(C(=O)NCC2(N3CCOCC3)CCCCC2)cc1OC` as the molecule, how does the inhibition read?
**A.** The inhibition was inactive: 13.6%.

**Q.** For `O=C(NCC1(N2CCOCC2)CCCCC1)c1cc(Br)ccc1Cl`, which inhibition is on record?
**A.** The inhibition was inactive: -9.11%.

**Q.** For `COc1cc(C(=O)NCC2(N3CCOCC3)CCCCC2)cc(OC)c1C`, which inhibition is on record?
**A.** The inhibition was inactive: -6.97%.

— PubChem BioAssay AID651582 (Sanford-Burnham Center for Chemical Genomics, 2012)
